Reference: PubChem BioAssay AID493140 (UCLA Molecular Screening Shared Resource, 2011)
Only a part is listed here, and it is no random draw. Activity calls are given as the source filed them. How the calls were made is not given here.

Experiment: hESC survival regulators, cell-based (AID 493140);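 further: cells exposed to compounds for four days before counting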
Settings: human embryonic stem cell survival screen; active compounds read high
In the case of `NC(=O)Nc1ccc([As](=O)(O)O)cc1`, the survival is reported as inactive: 12.2.
